Experiments:
[1] = target: R14 (WP_021170906-LBD) (Sporomusa ovata, UniProt A0A0U1L1T7); experiment: Thermal shift assay of the R14 LBD; assay type: binding; settings: change in Tm, threshold 2 °C
[2] = target: R6 (WP_185834821-LBD) (Vibrio cholerae, UniProt Q9KPY8); experiment: Thermal shift assay of the R6 LBD; assay type: binding; settings: change in Tm, threshold 2 °C
[3] = test system: R10 (WP_110129388-LBD); assay type: binding, Coraliomargarita sinensis; settings: change in Tm, threshold 2 °C; cells left empty in Table 3
[4] = test system: R13 (WP_167859577-LBD); assay type: binding, Paenibacillus cymbidii; settings: change in Tm, threshold 2 °C; 2 mM ligand (Supplementary Fig. 7)
[5] = test system: R5 (WP_131005693-LBD); experiment: Thermal shift assay of the R5 LBD; assay type: binding, Clostridioides difficile; settings: change in Tm, threshold 2 °C
[6] = target: R1 (WP_219614703-LBD) (Aeromonas salmonicida, UniProt T0PLV6); assay type: binding; settings: change in Tm, threshold 2 °C
[7] = test system: members of the family dCache_1PU (11 soluble LBDs); experiment: Thermal shift ligand screening of all dCache_1PU proteins (Biolog arrays PM3B and PM5); assay type: binding

Row | Structure (SMILES) | Binding in thermal shift assay, R14 [1] | Binding in thermal shift assay, R6 [2] | Binding in thermal shift assay, R10 (Supplementary Table 3) [3] | Binding in thermal shift assay, R13 [4] | Binding in thermal shift assay, R5 [5] | Binding in thermal shift assay, R1 [6] | Shift in the thermal shift assays [7]
1 | Cn1c(=O)c2c(ncn2C)n(C)c1=O [Caffeine, reference compound] | Nts^b (no binding observed in thermal shift assays, i.e., compounds caused changes in the midpoint of protein unfolding (Tm) of less than 2 °C) | Nts^b (no binding observed in thermal shift assays, i.e., compounds caused changes in the midpoint of protein unfolding (Tm) of less than 2 °C) | Nts (No binding observed in thermal shift assays, i.e. compounds caused changes in the midpoint of protein unfolding (Tm) of less than 2 ºC) | Nts^b (no binding observed in thermal shift assays, i.e., compounds caused changes in the midpoint of protein unfolding (Tm) of less than 2 °C) | Nts^b (no binding observed in thermal shift assays, i.e., compounds caused changes in the midpoint of protein unfolding (Tm) of less than 2 °C) | Nts^b (no binding observed in thermal shift assays, i.e., compounds caused changes in the midpoint of protein unfolding (Tm) of less than 2 °C) | 
2 | CC(C)[C@H](N)C(=O)O [L-Val] |  |  |  |  |  |  | did not produce any significant shift

From publication PMC11245519, “Ubiquitous purine sensor modulates diverse signal transduction pathways in bacteria” (Nature Communications, 2024)
